Measurements reported in PubChem BioAssay AID540263 (National Center for Advancing Translational Sciences (NCATS), 2011).
This is one part of the list. Results filed as inconclusive are left out. Activity calls are given as the source filed them. The call rests on the fitted dose curve.

Protein sequences, listed by entry. Tags and fused reporters are not part of them.
UniProt Q14974, whole entry: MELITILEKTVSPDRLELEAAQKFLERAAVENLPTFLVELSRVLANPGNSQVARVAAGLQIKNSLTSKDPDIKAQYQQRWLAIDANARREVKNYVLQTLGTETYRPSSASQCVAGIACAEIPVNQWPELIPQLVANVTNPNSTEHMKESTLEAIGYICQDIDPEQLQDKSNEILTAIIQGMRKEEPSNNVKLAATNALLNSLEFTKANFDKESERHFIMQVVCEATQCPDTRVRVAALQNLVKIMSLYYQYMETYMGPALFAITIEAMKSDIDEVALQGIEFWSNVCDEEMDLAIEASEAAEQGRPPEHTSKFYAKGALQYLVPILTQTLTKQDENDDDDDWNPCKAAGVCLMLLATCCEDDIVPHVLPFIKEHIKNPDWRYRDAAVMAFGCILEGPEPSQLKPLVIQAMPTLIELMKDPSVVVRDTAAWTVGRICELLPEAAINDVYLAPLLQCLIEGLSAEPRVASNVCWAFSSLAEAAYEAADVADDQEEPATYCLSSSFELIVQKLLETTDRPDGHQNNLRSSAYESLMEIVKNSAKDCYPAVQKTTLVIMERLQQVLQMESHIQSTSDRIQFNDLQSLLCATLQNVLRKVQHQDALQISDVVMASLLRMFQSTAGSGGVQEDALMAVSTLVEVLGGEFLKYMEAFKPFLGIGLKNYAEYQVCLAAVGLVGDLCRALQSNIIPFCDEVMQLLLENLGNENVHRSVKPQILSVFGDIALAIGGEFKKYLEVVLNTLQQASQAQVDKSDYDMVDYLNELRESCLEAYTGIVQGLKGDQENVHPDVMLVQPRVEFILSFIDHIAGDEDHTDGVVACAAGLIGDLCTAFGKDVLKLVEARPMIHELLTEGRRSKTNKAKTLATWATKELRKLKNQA
UniProt O95149, whole entry partner: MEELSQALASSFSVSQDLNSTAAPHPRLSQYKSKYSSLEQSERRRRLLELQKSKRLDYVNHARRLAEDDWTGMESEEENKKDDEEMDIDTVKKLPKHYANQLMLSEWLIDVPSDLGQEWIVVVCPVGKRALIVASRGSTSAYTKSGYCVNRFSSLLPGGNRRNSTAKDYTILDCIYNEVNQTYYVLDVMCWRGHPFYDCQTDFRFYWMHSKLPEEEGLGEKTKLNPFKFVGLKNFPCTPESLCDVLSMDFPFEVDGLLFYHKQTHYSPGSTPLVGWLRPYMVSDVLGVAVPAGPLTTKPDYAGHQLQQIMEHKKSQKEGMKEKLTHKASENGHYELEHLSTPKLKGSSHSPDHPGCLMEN

The molecules below were run against Importin subunit beta-1 (Homo sapiens) (UniProt Q14974) (assay: qHTS Assay for Inhibitors of Rango (Ran-regulated importin-beta cargo) - Importin beta complex formation). Settings: Rango CFP/YFP FRET sensor + importin beta, 45 min; at 92.2 µM (top of the series).
Procedure, shortened: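 FRET biosensor Rango (snurportin 1 IBB between N-terminal EYFP and C-terminal Cerulean), 50 nM in PBS/1 mM DTT/0.02% Tween-20/0.1% BSA, preincubated 5 min RT with compound; 0.125 microM importin beta added, 45 min RT, CFP/YFP FRET ratio read.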
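Further: 0% = DMSO wells and 100% = buffer wells lacking importin beta; nearly all actives have a fitted effect of over 15% in size.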

Row | Compound | inhibition of complex formation
1 | CC(C)C(=O)NC(Sc1ccccc1)C(Cl)(Cl)Cl (stereo not given) | inactive: -5.15%
2 | CCOP(C)(=S)SCC(=O)NC(C)(CC)C(=O)O (stereo not given) | inactive: -1.66%
3 | c1nnnn1CCn1cnnn1 | inactive: 2.07%
4 | O=[N+]([O-])c1ncn(CCn2cnc([N+](=O)[O-])n2)n1 | inactive: 2.25%
5 | O=[N+]([O-])c1ccc(OP2(=O)COCCO2)cc1 (stereo not given) | inactive: 3.71%
6 | O=[N+]([O-])c1ccc(O)c(/C=N/Nc2ccc([N+](=O)[O-])cc2[N+](=O)[O-])c1 | inactive: 0.371%
7 | O=[As](O)(c1ccccc1)c1ccc(O)cc1 | inactive: 0.432%
8 | Cc1cc(-c2cccc3ccccc23)c(C)cn1.O=[N+]([O-])c1cc([N+](=O)[O-])c(O)c([N+](=O)[O-])c1 | inactive: -0.705%
9 | Cc1c(C(c2ccc3c(c2)OCO3)c2c(C)n(C)n(-c3ccccc3)c2=O)c(=O)n(-c2ccccc2)n1C.O=[N+]([O-])c1cc([N+](=O)[O-])c(O)c([N+](=O)[O-])c1 | inactive: -0.484%
10 | C(Cc1nn[nH]n1)Cc1nn[nH]n1 | inactive: 3.03%
11 | Nc1ccc([As](=O)(O)c2ccc([N+](=O)[O-])cc2)cc1 | inactive: 2.01%
12 | O=C(OC1CN2CCC1CC2)c1cccc(Cl)c1 (stereo not given) | inactive: -1.76%
13 | COc1ccc(OP(C)(=O)Nc2cccc(Br)c2)cc1 (stereo not given) | inactive: 3.99%
14 | COc1ccc(N)c([N+](=O)[O-])c1[N+](=O)[O-] | inactive: -5.69%
15 | CN(C)C1(CNC(=O)c2ccc(Cl)c(S(N)(=O)=O)c2)CCCCC1 | inactive: -1.81%
16 | O=P(Nc1ccccn1)(c1ccc(Br)cc1)c1ccc(Br)cc1 | inactive: -0.507%
17 | O=P(Nc1nc2ccccc2s1)(c1ccccc1)c1ccccc1 | inactive: -5.31%
18 | CN(C)CCOC(=O)C(O)(c1ccccc1)C1CCCCC1 (stereo not given) | inactive: -1.13%
19 | C[C@H]1OP(=O)(Oc2ccccc2)[C@H](O)[C@H](O)[C@H]1N=[N+]=[N-] (stereo not given in full) | inactive: -0.35%
20 | COc1ccc(NP(C)(=O)Oc2ccccc2OC)cc1 (stereo not given) | inactive: -1.69%
